Measured values taken from patent US9206164B2, “Pyrazole compounds as CRTH2 antagonists” (Boehringer Ingelheim International GmbH, priority 2011, dated 2015).

By UniProt entry, the sequences of proteins in these tests, tags left out.
UniProt Q9Y5Y4, whole entry: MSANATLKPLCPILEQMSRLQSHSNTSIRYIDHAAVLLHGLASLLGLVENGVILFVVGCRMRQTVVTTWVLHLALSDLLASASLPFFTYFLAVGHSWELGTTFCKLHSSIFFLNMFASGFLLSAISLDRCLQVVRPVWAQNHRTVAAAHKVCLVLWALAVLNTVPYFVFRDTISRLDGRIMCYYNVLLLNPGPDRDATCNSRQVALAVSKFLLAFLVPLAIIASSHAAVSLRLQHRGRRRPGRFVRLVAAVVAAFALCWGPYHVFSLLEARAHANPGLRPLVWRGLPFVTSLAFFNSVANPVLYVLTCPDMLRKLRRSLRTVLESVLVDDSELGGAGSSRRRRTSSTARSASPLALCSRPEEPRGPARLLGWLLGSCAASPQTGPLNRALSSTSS

molecular target: human CRTH2 receptor (Homo sapiens (Human), UniProt Q9Y5Y4); assay: CRTH2 receptor radioligand binding assay (SPA, [3H]-PGD2 displacement); settings: antagonistic activities of selected compounds
Method: The binding of CRTH2 antagonists is determined using membranes prepared from Chinese hamster ovary cells (CHO-K1 cells) transfected with the human CRTH2 receptor (CHO-K1-hCRTH2 cells, Perkin Elmer, Cat No ES-561-C). To produce cell membranes the CHO-K1-hCRTH2 cells are cultured in suspension in CHO SFMII medium supplemented with 400 μg/ml G418. The cells are harvested by centrifugation at 300 g for 10 min at room temperature. The cell pellet is resuspended in Phosphate Buffer Saline (PBS) including a protease inhibitor mix (Complete, Roche) and adjusted to a concentration of 10E7 cells/ml. The CHO-K1-hCRTH2 cells are disrupted by nitrogen […] to obtain the membrane preparation. Cell debris is removed by centrifugation (500 g at 4° C., 30 min) and the supernatant is transferred into fresh tubes followed by a second centrifugation at 40000 g for 1 h at 4° C. to sediment the membranes. The membranes are suspended in SPA incubation buffer (50 mM Tris HCl, 10 mM MgCl2, 150 mM NaCl, 1 mM EDTA, pH 7.4) without bovine serum albumin, homogenized by passing through a single use needle (Terumo, 23G×1″), and stored in aliquots at −80° C.
The CRTH2 receptor binding assay is performed in a scintillation proximity assay (SPA) format with the radioligand [^3H]-PGD2 (Perkin Elmer, NET616000MC). […] Bound radioactivity is determined with a scintillation counter (Micro Beta Trilux, Wallac).
The binding of [^3H]-PGD2 to CHO-K1-hCRTH2 cell membranes is determined in the absence (total binding, Bo) and presence (non-specific binding, NSB) of unlabelled PGD2 (1 μM, Cayman Chemical, Cat No 12010) or a reference CRTH2 antagonist (10 μM CAY10471, Cayman Chemical, Cat No 10006735).
Determination of the affinity of a test compound is calculated by subtraction of the non-specific binding (NSB) from the total binding (Bo) or the binding in the presence of the test compound (B) at a given compound concentration. […]

Row | Ki [nM] | Structure (SMILES)
1 | 1.4 | CCc1nn(Cc2ccc(-c3nc4cc(C)ccc4[nH]3)cc2F)c(CC)c1CC(=O)O
2 | 0.3 | CCc1nn(Cc2ccc(-c3nc4cc(Br)ccc4[nH]3)cc2)c(CC)c1CC(=O)O
3 | 138 | Cc1nn(Cc2ccc(-c3nc4cc(Cl)c(Cl)cc4n3C)cc2)c(C)c1CC(=O)O
